# In PubChem BioAssay AID1347071 (National Center for Advancing Translational Sciences (NCATS), 2019):
# The entries are a selection whose mix differs from that of the whole data set. Some structures show a salt or complex split into parts, the way the source records it. Activity calls are given as the source filed them. Calls come from the whole dose curve; as a rule, active = well fitted activation curve with a large enough effect; inconclusive = small, poorly fitted or top-dose-only effect; inactive = no such curve, though single readings can be large or run the other way.
# Test: qHTS for compounds that reverse cellular toxicity of Amyloid beta (A-beta) peptide in yeast: Primary Screen; note: nearly all actives have a fitted effect of over 55% in size
# Settings: yeast expressing A-beta42, growth rescue, OD600, 48 h, 0% DMSO, 100% iron-clioquinol control; at 46.1 µM (top of the series)
# Excerpt: The A-beta peptide is produced by the processing of the amyloid precursor protein (APP) by two proteases, beta and gamma secretases. […] A-beta42 is regarded as the most amyloidogenic form due to its hydrophobicity; however, precisely how A-beta42 induces neurotoxicity is unclear. To understand further this biology and its potential therapeutic implications for human neurodegenerative disease, a quantitative high-throughput screen for compounds that reverse the cellular toxicity of the A-beta peptide was developed. A yeast based screen was used because it recapitulates the salient feature of protein mis-folding disorder accurately. This cell-based phenotypic screen provides a significant, unbiased advantage by letting the compounds and models inform us which proteins or pathways are most relevant. The ideal chemical candidates would therefore have activity in both our primary yeast and secondary neuronal toxicity assays, as well as in mouse models. They will be valuable tools for dissecting diverse protein homeostasis pathologies and could potentially become the focus for future pre-clinical development. For this luminescence assay, inhibition of A-beta rescues the toxic effect in the yeast cell, resulting in increase of signals and the desired phenotype of "Activator". This screen is run against the Molecular Libraries Small Molecule Repository (MLSMR) and the NCGC Sytravon Library Collection.
# NIH Chemical Genomics Center [NCGC]
# NIH Molecular Libraries Probe Centers Network [MLPCN]
# Assay Submitter (PI): Susan Lindquist, Whitehead Institute, Massachusetts Institute of Technology
# [1] Vassar R,et al (1999). Beta-secretase cleavage of Alzheimer's amyloid precursor protein by the transmembrane aspartic protease BACE. Science. 286: 735-741.
# [2] Yan R, et al (1999). Membrane-anchored aspartyl protease with Alzheimer's disease beta-secretase activity. Nature. 402: 533-536.
# Two and a half microliter / well of yeast growth medium were dispensed in a 1536 assay plate. Compounds were pinned using the Kalypsys robotic system followed by addition of 2.5 uL / well yeast solution. The assay plates were incubated at 30 C. After 48 hr, the absorbance signal at 600 nm was obtained using the PerkinElmer ViewLux plate reader to assess yeast growth. The data was normalized to the positive control of an equimolar mixture of ferric chloride (FeCl3) and clioquinol and to the negative control DMSO.
row,Structure (SMILES),growth rescue
1,O=c1[nH]c2ccccc2n1C1CCN(C(c2cc3ccccc3o2)c2nnnn2C2CCCC2)CC1 (stereo not given),inactive: 6.82%
2,CCCOc1ccc(C(=O)NCC2(N(C)C)CCCCC2)cc1,inactive: 17.8%
3,NN(c1ccccc1)C1CCN(CCc2ccccc2)CC1,inactive: -20.6%
4,O=C(O)C1(Nc2ccccc2)CCN(Cc2ccccc2)CC1,inactive: 4.75%
5,CC(C)(C)OC(=O)N1CCC(Nc2ccccc2)CC1,inactive: -16.8%
6,CN1CCC(Nc2ccc(F)c(Cl)c2)CC1,inactive: -19.7%
7,CCOc1ncccc1C(=O)NCC1(N2CCOCC2)CCCCC1,inactive: -1.54%
8,CN1CCC(Nc2ccc(Cl)cc2)CC1,inactive: 0.0871%
9,CCC(CO)(C(=O)OC1CN2CCC1CC2)c1ccccc1 (stereo not given),inactive: 6.88%
10,COc1cccc(C(=O)N(c2cc(C)cc(C)c2)C2CCN(C(=O)OC(C)(C)C)CC2)c1,inactive: 5.11%
11,COc1cc(OC)cc(C(=O)NCC2(N3CCOCC3)CCCCC2)c1,inactive: 1.92%
12,COc1cccc(C(c2nnnn2C2CCCC2)N2CCC(n3c(=O)[nH]c4ccccc43)CC2)c1OC (stereo not given),inactive: 3.96%
13,COc1cc(C(=O)NCC2(N3CCOCC3)CCCCC2)cc(OC)c1OC,inactive: -8.86%
14,Cc1ccc(NC2(C#N)CCN(Cc3ccccc3)CC2)cc1,inactive: -14.1%
15,Fc1ccccc1NC1CCN(Cc2ccccc2)CC1,inactive: -0.059%
16,Cc1ccc(Nc2c([N+](=O)[O-])cc([N+](=O)[O-])cc2[N+](=O)[O-])cc1,inactive: -40.6%
17,Cc1ccc(C(=O)NCC2(N3CCCCC3)CCCCC2)o1,inactive: 1.91%
18,COc1cc(OC)cc(C(=O)NCC2(N3CCCCC3)CCCCC2)c1,inactive: -1.25%
19,O=c1[nH]c2ccccc2n1C1CCN(C(c2ccnc3ccccc23)c2nnnn2C2CCCCC2)CC1 (stereo not given),inactive: 7.92%
20,CCC(c1nnnn1C1CCCCC1)N1CCC(n2c(=O)[nH]c3ccccc32)CC1 (stereo not given),inactive: 2.86%
21,CN(C)C1(CNC(=O)c2ccc(C(C)(C)C)cc2)CCCCC1,inactive: -13%
22,COc1cccc(C(c2nnnn2C2CCCCC2)N2CCC(n3c(=O)[nH]c4ccccc43)CC2)c1OC (stereo not given),inactive: 4.03%
23,CC(=O)N(c1ccccc1)C1CCNCC1,inactive: -2.96%
24,CN(C)c1ccc(C(=O)NCC2(N3CCCCC3)CCCCC2)cc1,inactive: -17.6%
25,Cn1c(=O)[nH]cc(N(CCCl)CCCl)c1=O,inactive: 1.38%
26,O=C(NCC1(N2CCCCC2)CCCCC1)c1ccco1,inactive: -1.51%
27,CC(C)(C)c1ccc(C(=O)NCC2(N3CCOCC3)CCCCC2)cc1,inactive: 8.03%

row,Structure (SMILES),growth rescue
1,Cc1ccccc1C(=O)NCC1(N(C)C)CCCCC1,inactive: -5.98%
2,CCN1CCC(Nc2cccc(F)c2)CC1,inactive: 11.9%
3,COc1ccc(C(c2nnnn2C2CCCCC2)N2CCC(n3c(=O)[nH]c4ccccc43)CC2)cc1 (stereo not given),inactive: 2.38%
4,CC(C)(C)n1nnnc1C(c1ccnc2ccccc12)N1CCC(n2c(=O)[nH]c3ccccc32)CC1 (stereo not given),inactive: -20.6%
5,Cc1ccccc1NC1(C#N)CCN(Cc2ccccc2)CC1,inactive: -6.23%
6,CCOC(=O)N1CCC(Nc2ccc(F)cc2)CC1,inactive: 14.1%
7,COc1ccc(NC2CCN(CCc3ccccc3)CC2)c(OC)c1,inactive: 8.83%
8,CCCCOc1ccc(C(=O)NCC2(N3CCOCC3)CCCCC2)cc1,inactive: 5.08%
9,CCCCn1nnnc1C(c1cc2ccccc2o1)N1CCC(n2c(=O)[nH]c3ccccc32)CC1 (stereo not given),inactive: 12.6%
10,O=P1(N(CCCl)CCCl)SCCCS1,inactive: 0.805%
11,O=C(NCC1(N2CCCCC2)CCCCC1)c1ccc(F)cc1,inactive: 12.1%
12,COc1ccccc1C(=O)NCC1(N2CCOCC2)CCCCC1,inactive: -4.46%
13,CCOc1ccc(C)cc1CN(CCCl)CCCl,inactive: -2.11%
14,O=C1CCN(Cc2ccccc2)CC1,inactive: -13.5%
15,O=C(NCC1(N2CCOCC2)CCCCC1)c1ccc(Cl)cc1,inactive: -13%
16,CC(C)(C)n1nnnc1C(c1ccccc1)N1CCC(n2c(=O)[nH]c3ccccc32)CC1 (stereo not given),inactive: -0.678%
17,O=c1[nH]c2ccccc2n1C1CCN(C(c2cccc3ccccc23)c2nnnn2C2CCCC2)CC1 (stereo not given),inactive: 8.05%
18,CCOC(=O)N1CCC(Nc2cccc(C)c2)CC1,inactive: 0%
19,COc1cc(C(=O)NCC2(N(C)C)CCCCC2)ccc1OC(F)F,inactive: -43.8%
20,O=c1[nH]c2ccccc2n1C1CCN(C(c2ccccc2)c2nnnn2C2CCCCC2)CC1 (stereo not given),inactive: 9.09%
21,Cc1cccc(NC2(C#N)CCN(Cc3ccccc3)CC2)c1,inactive: -6.07%
22,CSc1ccccc1C(=O)NCC1(N2CCCCC2)CCCCC1,inactive: 3.1%
23,O=C(NCC1(N2CCCCC2)CCCCC1)c1cccs1,inactive: -0.346%
24,CCCCn1nnnc1C(CC)N1CCC(n2c(=O)[nH]c3ccccc32)CC1 (stereo not given),inactive: 8.45%
25,CCCCn1nnnc1C(c1cccs1)N1CCC(n2c(=O)[nH]c3ccccc32)CC1 (stereo not given),inactive: -13%
26,O=C(NCC1(N2CCCCC2)CCCCC1)c1ccc(=O)[nH]c1,inactive: 0.71%
27,CC(C)(C)OC(=O)N1CCC(N(C(=O)c2ccccc2)c2ccc(F)cc2)CC1,inactive: 0.367%

row,Structure (SMILES),growth rescue
1,COc1ccc(C(=O)NCC2(N3CCCCC3)CCCCC2)c(OC)c1OC,inactive: -0.0597%
2,CCC(c1nnnn1C1CCCC1)N1CCC(n2c(=O)[nH]c3ccccc32)CC1 (stereo not given),inactive: -0.536%
3,COc1ccc(C(=O)NCC2(N3CCCCC3)CCCCC2)cc1,inactive: -19.9%
4,CCCCn1nnnc1C(c1ccc(OC)cc1)N1CCC(n2c(=O)[nH]c3ccccc32)CC1 (stereo not given),inactive: -21.8%
5,CCOC(=O)N1CCC(Nc2ccc(OC)cc2)CC1,inactive: -15.8%
6,COc1ccc(Cl)cc1C(=O)NCC1(N2CCOCC2)CCCCC1,inactive: 2.24%
7,O=C1C(O)=C([N+](=O)[O-])C(=O)C(O)=C1[N+](=O)[O-],inactive: 2.09%
8,O=C(NCC1(N2CCCCC2)CCCCC1)c1ccc(Cl)s1,inactive: 12.5%
9,N#CC1(Nc2ccccc2)CCN(Cc2ccccc2)CC1,inactive: -1.54%
10,O=c1[nH]c2ccccc2n1C1CCN(C(c2cc3ccccc3o2)c2nnnn2C2CCCCC2)CC1 (stereo not given),inactive: 17.4%
11,O=C(OC1CN2CCC1CC2)C1c2ccccc2Oc2ccccc21 (stereo not given),inactive: 24.3%
12,O=C(NCC1(N2CCOCC2)CCCCC1)c1cc2ccccc2o1,inactive: 3.42%
13,Cc1cc(C)cc(N(C(=O)c2ccccc2)C2CCN(C(=O)OC(C)(C)C)CC2)c1,inactive: 13.5%
14,O=C(NCC1(N2CCCCC2)CCCCC1)c1ccc(Cl)nc1,inactive: 1.13%
15,O=c1[nH]c2ccccc2n1C1CCN(C(c2ccccc2OC(F)(F)F)c2nnnn2C2CCCCC2)CC1 (stereo not given),inactive: 9.33%
16,CCCCn1nnnc1C(c1ccnc2ccccc12)N1CCC(n2c(=O)[nH]c3ccccc32)CC1 (stereo not given),inactive: -11.3%
17,O=C(NCC1(N2CCOCC2)CCCCC1)c1cc(F)c(F)cc1Cl,inactive: -7.29%
18,CCC(c1nnnn1C(C)(C)C)N1CCC(n2c(=O)[nH]c3ccccc32)CC1 (stereo not given),inactive: -16.8%
19,COc1cc(OC)c(C(=O)NCC2(N(C)C)CCCCC2)cc1OC,inactive: 11.2%
20,CN(C)c1cccc(C(=O)NCC2(N3CCCCC3)CCCCC2)c1,inactive: -0.364%
21,O=[N+]([O-])c1cc([N+](=O)[O-])c(OC2CCCCC2O)c([N+](=O)[O-])c1 (stereo not given),inactive: 5.53%
22,COc1ccc(CN(CCCl)CCCl)cc1Cl,inactive: 14.5%
23,CCCCn1nnnc1C(c1ccccc1OC(F)(F)F)N1CCC(n2c(=O)[nH]c3ccccc32)CC1 (stereo not given),inactive: -10%
24,CC(C)c1ccc(NC2CCN(C(=O)OC(C)(C)C)CC2)cc1,inactive: 19%
25,O=C(NCC1(N2CCOCC2)CCCCC1)c1ccccc1Br,inactive: -5.87%
26,CCCOc1ccc(C(=O)NCC2(N(C)C)CCCCC2)cc1OC,inactive: -13.4%
27,CCCCOc1ccccc1C(=O)NCC1(N2CCOCC2)CCCCC1,inactive: -3.81%

row,Structure (SMILES),growth rescue
1,Cc1ccc(C(=O)NCC2(N(C)C)CCCCC2)o1,inactive: -3.03%
2,COc1ccc(C(c2nnnn2C2CCCC2)N2CCC(n3c(=O)[nH]c4ccccc43)CC2)cc1 (stereo not given),inactive: 7.28%
3,O=[N+]([O-])c1cc([N+](=O)[O-])c(Nc2ccc(Cl)cc2)c([N+](=O)[O-])c1,inactive: -77.6%
4,CN1CCC(Nc2cccc(F)c2)CC1,inactive: 23.6%
5,COc1ccc2c(c1O)-c1c(O)c(OC)cc3c1[C@H](C2)[N+](C)(C)CC3.O=[N+]([O-])c1cc([N+](=O)[O-])c([O-])c([N+](=O)[O-])c1[O-],inactive: -7.46%
6,O=C(NCC1(N2CCCCC2)CCCCC1)c1cncc(Br)c1,inactive: -3.35%
7,O=C(OC1CN2CCC1CC2)c1ccc([N+](=O)[O-])cc1 (stereo not given),inactive: 3.8%
8,O=C(NCC1(N2CCCCC2)CCCCC1)c1cccc([N+](=O)[O-])c1,inactive: -0.0136%
9,CCOc1ccc(C(=O)NCC2(N3CCOCC3)CCCCC2)cc1,inactive: -8.93%
10,CSc1ccc(C(=O)NCC2(N3CCOCC3)CCCCC2)cc1,inactive: -8.56%
11,O=c1[nH]c2ccccc2n1C1CCN(C(c2ccccc2OC(F)(F)F)c2nnnn2C2CCCC2)CC1 (stereo not given),inactive: 2.85%
12,N#CC1(Nc2ccccc2)CCN(CCc2ccccc2)CC1,inactive: 6.83%
13,CCN1CCC(Nc2ccc(Cl)cc2)CC1,inactive: -2.26%
14,O=C(NCC1(N2CCCCC2)CCCCC1)c1ccc(OC(F)F)cc1,inactive: 9.08%
15,CC(C)(C)n1nnnc1C(c1ccccc1OC(F)(F)F)N1CCC(n2c(=O)[nH]c3ccccc32)CC1 (stereo not given),inactive: -1.04%
16,CC(C)c1ccc(C(=O)NCC2(N3CCOCC3)CCCCC2)cc1,inactive: 2.83%
17,COc1ccc(NC2CCN(C(=O)OC(C)(C)C)CC2)cc1,inactive: 8%
18,CN1CCN(CCOC(=O)C(O)(c2ccccc2)c2ccccc2)CC1,inactive: -7.78%
19,CCCCn1nnnc1C(c1cccc2ccccc12)N1CCC(n2c(=O)[nH]c3ccccc32)CC1 (stereo not given),inactive: 5.74%
20,O=C(NCC1(N2CCOCC2)CCCCC1)c1cc(=O)[nH]c2ccccc12,inactive: 3.8%
21,COc1cc(C(=O)NCC2(N3CCCCC3)CCCCC2)ccc1OC(F)F,inactive: -6.14%
22,O=C(NCC1(N2CCCCC2)CCCCC1)c1cccc(C(F)(F)F)c1,inactive: 11.7%
23,CCCOc1cccc(C(=O)NCC2(N3CCOCC3)CCCCC2)c1,inactive: -14.7%
24,O=[N+]([O-])c1cc([N+](=O)[O-])c(NCC2CCS(=O)(=O)C2)c([N+](=O)[O-])c1 (stereo not given),inactive: -5.69%
